Laboratory results from paper PMC10215199 (Antioxidants, 2023).

Amino acid sequences for entries named in this document (tags omitted).
UniProt P27338, whole entry, looked up: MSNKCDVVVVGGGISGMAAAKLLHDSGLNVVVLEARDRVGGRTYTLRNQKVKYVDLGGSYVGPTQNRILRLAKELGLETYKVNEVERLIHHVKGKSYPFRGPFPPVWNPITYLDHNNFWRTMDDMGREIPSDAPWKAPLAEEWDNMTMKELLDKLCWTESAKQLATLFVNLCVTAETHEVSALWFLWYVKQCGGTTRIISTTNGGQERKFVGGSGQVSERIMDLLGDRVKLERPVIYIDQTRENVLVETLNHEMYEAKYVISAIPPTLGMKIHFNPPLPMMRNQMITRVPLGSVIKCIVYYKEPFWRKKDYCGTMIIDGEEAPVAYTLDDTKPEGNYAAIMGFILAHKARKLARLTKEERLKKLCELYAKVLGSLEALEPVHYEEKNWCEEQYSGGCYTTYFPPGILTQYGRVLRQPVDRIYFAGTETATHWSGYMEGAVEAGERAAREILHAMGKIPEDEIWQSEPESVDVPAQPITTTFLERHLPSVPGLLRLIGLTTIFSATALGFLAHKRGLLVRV

Molecular target: recombinant human MAO-B (Homo sapiens, UniProt P27338)
Assay: Monoamine oxidase-B inhibition assay (Amplex red fluorescence)
Format: biochemical
Conditions: calculated from MAO-A and MAO-B IC50 values

COc1cc(/C=C2\Oc3cc(OCCN4CCCC4)ccc3C2=O)cc(OC)c1OC [Compound 3bc]
MAO-B Selectivity Index: > 289
